In US20260130907A1 (DANA-FARBER CANCER INSTITUTE, INC., priority 2022, published 2026):

Columns and labels:
B cell lymphoma 6 (BCL6) = B cell lymphoma 6 (BCL6) (Homo sapiens, UniProt P41182); test: HiBiT cellular degradation assay in SU-DHL-4 cells; assay type: cell-based; details: for BCL6 degrader status (in words): conclusion drawn from Table 1; for DC50: read-out: HiBiT SU-DHL-4 DC50, concentration to reach 50% degradation of endogenous SmBiT-tagged BCL6, SU-DHL-4 cells, 24 hours of compound treatment
Kinetic solubility = details: for Kinetic solubility @pH 7.4: 50 mM phosphate buffer pH 7.4, 24 hours at room temperature
[1] = Metabolic stability in human liver microsome; details: human liver microsomes with NADPH, 37° C., 0-60 min

BCL6 degrader status (in words) (B cell lymphoma 6 (BCL6)) | DC50 (B cell lymphoma 6 (BCL6)) [nM] | Kinetic solubility @pH 7.4 (Kinetic solubility) [μM] | Kinetic solubility (FaSSIF) (Kinetic solubility; FaSSIF) [µM] | Kinetic solubility (FeSSIF) (Kinetic solubility; FeSSIF) [µM] | Human Liver Microsome Stability Clint [1] [µL/min/mg] | SMILES
degraders of BCL6 | 39 | <1.56 | 50.8 | 244 | 6.9 | CNC(=O)COc1cc2cc(Nc3nc(N4CC(C)C(F)(F)C(CN)C4)ncc3Cl)ccc2n(C)c1=O (stereo not shown)
degraders of BCL6 | 12 | 403.5 |  |  | 4.3 | CC1CN(c2ncc(Cl)c(Nc3ccc4c(c3)n(CCC(C)(C)O)c(=O)n4C)n2)CC(CCN)C1(F)F (stereo not shown)
